The text below walks through data of patent US10087187B2, “Imidazopyridazine derivatives as PI3KB inhibitors” (Janssen Pharmaceutica NV, priority 2014, dated 2018).

Where only a bound is given, the exact number is not on record here.

The subject of test [1] is Akt phosphorylated at Ser473 in PC-3 cells. The experiment in a line: Cellular assay: phosphorylation of Akt (Ser473) in PC-3 cells, MSD ELISA. The conditions noted are these: read-out: IC50 pAkt_S473, 60 min incubation with compound. On the technique in general: ELISA stands for enzyme-linked immunosorbent assay.
The subject of test [2] is Akt phosphorylated at Thr308 in PC-3 cells. The test is described as follows: Cellular assay: phosphorylation of Akt (Thr308) in PC-3 cells, MSD ELISA. The following applies: read-out: IC50 pAkt_Thr308, 60 min incubation with compound.

Take `Cc1c(Cc2c(CO)nc3c(N)cc(N4CCOC(CO)C4)nn23)cccc1C(F)(F)F` (single isomer, unassigned) [Compound 65]: the IC50 (commonly the concentration that gives 50% inhibition) in test [1] came to 79 nM; in test [2], 43 nM.
Take `Cc1c(Cc2c(CO)nc3c(N)cc(N4CCOC(CO)C4)nn23)cccc1C(F)(F)F` (single isomer, unassigned) [Compound 66]: the IC50 in test [1] is more than 513 nM; in test [2], 513 nM.
